The assay concerns the target HK-II. Nature of the assay: Microscale thermophoresis (MST) binding to HK-II. The conditions noted are these: HK-II 100 nM, peptide 1-100 μM, 20 min, PBS. The procedure:
Figure 2 Mode of action of VDAC1-based peptides – interacting with- and detaching HK, releasing Cyto c, decreasing ATP level and inducing apoptosis A. Purified HK-II was fluorescently labeled using the NanoTemper protein-labeling Kit BLUE. HK-II (100 nM) was incubated with Tf-D-LP4 (1- 100 μM for 20 min). Then, 3-5 μl of the samples were loaded into MST-grade glass capillaries and thermophoresis was measured using a Monolith-NT115 apparatus, as described in Materials and methods available online in Supplemental information. […] B. Tf-D-LP4 and D-ΔN-Ter-Antp induce HK-I-GFP detachment. […] For HK detachment, U-87MG cells were incubated with or without the indicated concentration of Tf-D-LP4 and D-ΔN-Ter-Antp for 3 h, treated with digitonin (0.02%) and HK in the cytosolic fraction was analyzed by immunoblotting, as described in Materials and Methods available online in Supplemental information. […] The levels of HK in the supernatants were quantified and are presented as relative units. D. D-ΔN-Ter-Antp induces mitochondrial inner membrane depolarization analyzed as described in Materials and Methods available online in Supplemental information. […] Cells then were analyzed for Δψ using TMRM. Δψ is presented as percentage of control. […] Quantification of apoptosis in control and peptide's treated cells are presented bellow the images. […]

Drawing on paper PMC5458211, “Mitochondrial VDAC1-based peptides: Attacking oncogenic properties in glioblastoma” (Oncotarget, 2017), this text covers Kd for 1 compound.

Take `CC[C@H](C)[C@H](NC(=O)[C@H](C)NC(=O)[C@@H](N)Cc1c[nH]cn1)C(=O)N[C@@H](Cc1ccc(O)cc1)C(=O)N1CCC[C@H]1C(=O)N[C@@H](CCCNC(=N)N)C(=O)N[C@@H](Cc1c[nH]cn1)C(=O)N[C@@H](CO)C(=O)N[C@@H](Cc1c[nH]c2ccccc12)C(=O)N[C@H](C(=O)N[C@@H](Cc1c[nH]c2ccccc12)C(=O)N[C@@H](CCC(=O)O)C(=O)N[C@H](CCCCN)C(=O)N[C@H](CCCCN)C(=O)N[C@H](CC(C)C)C(=O)N[C@H](CCC(=O)O)C(=O)N[C@@H](C(=O)N[C@H](C)C(=O)N[C@@H](C(=O)N[C@H](CC(N)=O)C(=O)N[C@H](CC(C)C)C(=O)N[C@H](C)C(=O)N[C@H](Cc1c[nH]c2ccccc12)C(=O)N[C@@H](C(=O)N[C@H](C)C(=O)NCC(=O)N[C@H](CC(N)=O)C(=O)N[C@H](CO)C(=O)N[C@H](CC(N)=O)C(=O)N[C@@H](CCCCN)C(=O)N[C@@H](Cc1c[nH]c2ccccc12)C(=O)N[C@H](C(=O)N[C@@H](Cc1c[nH]c2ccccc12)C(=O)N[C@@H](CCCCN)C(=O)O)[C@@H](C)O)[C@H](C)O)C(C)C)[C@H](C)O)[C@@H](C)O` [Tf-D-LP4]: binding was put at a Kd of 16.6 µM.
